The text below walks through data of PMC2172130.

Amino acid sequences for entries named in this document (tags omitted). A change or cut given only in a name is not applied to a line headed by its entry.
UniProt Q9WU70: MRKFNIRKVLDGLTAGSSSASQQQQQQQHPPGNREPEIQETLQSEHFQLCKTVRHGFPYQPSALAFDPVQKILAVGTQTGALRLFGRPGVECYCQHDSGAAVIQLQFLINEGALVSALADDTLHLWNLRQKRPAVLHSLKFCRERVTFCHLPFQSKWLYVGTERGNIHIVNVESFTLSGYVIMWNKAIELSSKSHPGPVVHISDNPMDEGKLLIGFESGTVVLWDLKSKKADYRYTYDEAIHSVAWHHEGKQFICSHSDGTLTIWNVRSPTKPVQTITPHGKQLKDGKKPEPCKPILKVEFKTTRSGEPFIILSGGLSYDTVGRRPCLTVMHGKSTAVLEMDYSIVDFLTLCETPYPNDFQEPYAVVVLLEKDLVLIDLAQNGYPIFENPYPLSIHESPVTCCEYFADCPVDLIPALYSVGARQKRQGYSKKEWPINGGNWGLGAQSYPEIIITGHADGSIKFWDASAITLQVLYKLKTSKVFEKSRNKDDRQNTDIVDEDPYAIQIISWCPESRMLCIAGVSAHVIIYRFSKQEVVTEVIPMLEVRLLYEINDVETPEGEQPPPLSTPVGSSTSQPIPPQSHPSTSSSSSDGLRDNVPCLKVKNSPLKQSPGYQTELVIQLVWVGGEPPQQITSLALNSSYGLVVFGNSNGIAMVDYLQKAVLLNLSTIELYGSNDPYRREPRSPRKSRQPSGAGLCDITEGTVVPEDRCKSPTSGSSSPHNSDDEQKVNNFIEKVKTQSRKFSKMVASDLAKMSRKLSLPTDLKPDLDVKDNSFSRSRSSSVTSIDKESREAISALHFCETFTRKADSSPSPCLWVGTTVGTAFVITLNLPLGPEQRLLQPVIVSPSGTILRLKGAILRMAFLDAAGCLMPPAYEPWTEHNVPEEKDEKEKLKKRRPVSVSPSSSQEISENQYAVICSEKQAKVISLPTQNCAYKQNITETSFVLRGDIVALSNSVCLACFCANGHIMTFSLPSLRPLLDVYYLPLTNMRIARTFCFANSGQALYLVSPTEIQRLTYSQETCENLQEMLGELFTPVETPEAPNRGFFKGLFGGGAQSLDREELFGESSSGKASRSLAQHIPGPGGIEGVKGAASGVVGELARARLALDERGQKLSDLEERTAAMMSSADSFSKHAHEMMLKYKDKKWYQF

The test concerns the target tomosyn (expressed in Sf9 cells) (UniProt Q9WU70). Description: far-Western, overlay or dot blot.

Turning to “syntaxin-1, phosphorylated by ROCK (recombinant) (from UniProt P32851 1-288) (natural protein)”, the Kd worked out at 10 nM.
